From US20250387404A1, “FORMULATIONS AND METHODS FOR TREATING EPIDERMOLYSIS BULLOSA SIMPLEX AND RELATED CONDITIONS” (RUTGERS, THE STATE UNIVERSITY OF NEW JERSEY, priority 2022, published 2025)

Assays:
A549 cells = settings: 5 μM, 48 h
Description: A549 cells were cultured using Ham's F-12K medium (Thermo Fisher Scientific) supplemented with 10% fetal bovine serum (Sigma Aldrich) and 1% penicillin and 10,000 U/mL streptomycin (Life Technologies).

K18 R90C mice = settings: males, PP2 1 mg/kg ip 3 h after APAP, vs vehicle controls

CC(C)(C)n1nc(-c2ccc(Cl)cc2)c2c(N)ncnc21 [PP2, 1-tert-butyl-3-(4-chlorophenyl)-1H-pyrazolo[3,4-d]pyrimidin-4-amine]
growth of A549 cells (A549 cells): appears to inhibit the growth
caspase 7 activation (K18 R90C mice): significant reduction
